Measured values published in PubChem BioAssay AID720708 (National Center for Advancing Translational Sciences (NCATS), 2013).
The list shows a part of the results, in another mix than the full data. Activity calls are given as the source filed them. Calls come from the whole dose curve; as a rule, active = well fitted inhibition curve with a large enough effect; inconclusive = small, poorly fitted or top-dose-only effect; inactive = no such curve, though single readings can be large or run the other way.

The chains behind the UniProt entries cited, without tags or fusion partners.
UniProt Q8WZA2, whole entry: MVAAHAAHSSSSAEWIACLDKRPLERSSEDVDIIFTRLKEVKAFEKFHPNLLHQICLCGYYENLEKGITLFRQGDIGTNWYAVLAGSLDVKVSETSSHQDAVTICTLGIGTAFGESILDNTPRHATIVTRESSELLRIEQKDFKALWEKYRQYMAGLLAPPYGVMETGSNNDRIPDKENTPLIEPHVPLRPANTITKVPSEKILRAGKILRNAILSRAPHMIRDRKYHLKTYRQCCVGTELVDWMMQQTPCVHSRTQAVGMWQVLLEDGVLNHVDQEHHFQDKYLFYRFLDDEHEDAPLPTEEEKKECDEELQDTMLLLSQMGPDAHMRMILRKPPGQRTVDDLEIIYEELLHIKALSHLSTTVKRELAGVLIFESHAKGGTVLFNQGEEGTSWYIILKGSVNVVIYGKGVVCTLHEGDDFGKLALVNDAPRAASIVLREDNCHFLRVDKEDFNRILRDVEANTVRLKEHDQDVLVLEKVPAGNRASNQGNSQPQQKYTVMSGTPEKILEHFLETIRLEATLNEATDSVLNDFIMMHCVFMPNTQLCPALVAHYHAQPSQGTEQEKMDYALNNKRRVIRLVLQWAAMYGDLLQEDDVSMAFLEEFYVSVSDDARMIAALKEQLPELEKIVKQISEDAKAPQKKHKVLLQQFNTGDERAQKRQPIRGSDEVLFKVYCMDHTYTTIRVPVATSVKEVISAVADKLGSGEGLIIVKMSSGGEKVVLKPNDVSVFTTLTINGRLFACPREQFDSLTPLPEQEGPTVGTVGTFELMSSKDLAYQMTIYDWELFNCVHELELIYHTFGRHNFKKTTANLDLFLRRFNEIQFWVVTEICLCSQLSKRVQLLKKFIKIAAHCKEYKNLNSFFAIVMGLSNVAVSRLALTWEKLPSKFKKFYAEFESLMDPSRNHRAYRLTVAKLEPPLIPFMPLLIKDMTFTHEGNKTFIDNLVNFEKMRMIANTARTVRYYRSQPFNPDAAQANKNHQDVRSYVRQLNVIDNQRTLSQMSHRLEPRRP

molecular target: Rap guanine nucleotide exchange factor 4 (Homo sapiens) (UniProt Q8WZA2); assay: qHTS for Antagonist of cAMP-regulated guanine nucleotide exchange factor 2 (EPAC2): primary screen; details: EPAC2 GEF exchange of Rap1B-BODIPY-GDP, fluorescence; at 114 µM (top of the series); note: nearly all actives have a fitted effect of over 45% in size
Description: In multi-cellular eukaryotic organisms, the effects of cAMP are transduced by two ubiquitously-expressed intracellular cAMP receptors, the classic protein kinase A/cAMP-dependent protein kinase (PKA/cAPK) and the more recently discovered exchange protein directly activated by cAMP/cAMP-regulated guanine nucleotide exchange factor (EPAC/cAMP-GEF). Both PKA and EPAC are ubiquitously expressed in all tissues, and an increase in intracellular cAMP levels will lead to the activation of both PKA and EPAC. […]
This qHTS will be used to screen the Molecular Libraries Small Molecule Repository (MLSMR) as a concentration-titration series using the NCGC unique quantitative screening (qHTS) platform to find inhibitors for EPAC2. […] Inhibitors are identified by monitoring the change in fluorescence signal as the exchanged free BODIPY-GDP has a reduced fluorescence compared to Rap1-bound BODIPY-GDP. […]
Briefly, three uL of reagents (100 nM EPAC2, 250 nM RAP1B-BODIPY-GDP, 50 uM GDP) were dispensed into a 1536-well Greiner black solid-bottom medium binding assay plate. […] The assay plates were read at 5 minute intervals for 30 minutes in the ViewLux plate reader using 480nm excitation and 540nm emission filters. […]
% is set by controls: 0 for no effect and ±100 for the full control effect.

For `CCC(=O)N(c1ccccc1)C1(COC)CCN(CCc2cccs2)CC1`, which activity, negative = inhibition is on record?
Its activity, negative = inhibition is inactive: 20.4%.

`CCC(=O)N(c1ccccc1)C1(COC)CCN(CCn2nnn(CC)c2=O)CC1` was tested. Which activity, negative = inhibition did it give?
The activity, negative = inhibition was inactive: 9.49%.
